Source: US9670266B2, “Method and composition for crystallizing G protein-coupled receptors” (The Board of Trustees of the Leland Stanford Junior …, priority 2007, dated 2017)

Tested on: β2AR-T4L
Assay: Competition binding against 0.5 nM [^3H]DHA, Sf9 membranes, β2AR-T4L

## COc1ccc(CC(C)NCC(O)c2ccc(O)c(NC=O)c2)cc1 (stereo not shown)
  affinity of β2AR-T4L relative to wild-type β2AR: two to three-fold higher
